Test [1] is described as follows: NFAT Signaling Pathway (AID 444; active = well fitted curve in either direction with a large enough effect, not every such curve was filed as active;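 also: carbachol stimulus at about its EC50 of 1 µM final; % is scaled to controls: 0 for no effect and ±100 for the full control effect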). Particulars: Jurkat NFAT-bla M1, carbachol, beta-lactamase ratio, 5 h; at 7.69 µM (top of the series) unless noted.
In test [2] the target is 3',5'-cyclic-AMP phosphodiesterase 4B (Homo sapiens) (UniProt Q07343). The experiment in a line: qHTS Assay for Inhibitors of PDE-IV (AID 607; active = well fitted activation curve with a large enough effect in the main read-out, with a control signal flat, not every such curve was filed as active; also: % of control where 0% means no effect). To be noted: HEK293 ACTOne CNG channel cells, membrane potential fluorescence; at 22.9 µM (top of the series). The procedure, abridged:
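HEK293 ACTOne cells with CNG channel (1000/well), endogenous PDE4; membrane potential dye, compounds up to 22.9 uM final. Fluorescence Ex 535/Em 590; RO 20-1724 (100 uM final) as reference.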
Background: In qHTS, concentration-response curves come from the screen itself.

Test [3] is described as follows: Cell Proliferation Assay against the HBL1 Cell Line (AID 651646).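 Also: cells exposed to compound for 48 h before reading.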 Particulars: HBL1 DLBCL cells; at 46.1 µM (top of the series) unless noted. The procedure, abridged:
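CellTiter-Glo luminescence after 48 h compound exposure at 37C gives percent activity, with DMSO as 100% and 9.2 uM bortezomib final as 0%. Cells: 500 log-phase HBL1 per well, RPMI plus 5% FBS.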

Test [4] deals with Cytochrome P450 3A4 (Homo sapiens) (UniProt P08684). Nature of the test: qHTS Assay for Activators of Cytochrome P450 3A4 (AID 885). Also: nearly all actives have a fitted effect of over 65% in size. Particulars: recombinant CYP3A4, Luciferin-PPXE luminescence, 60 min; at 57.1 µM (top of the series).
Test [5] in a line: qHTS assay for small molecule activators of the nuclear factor-kappa B (NF-kB) signaling pathway (AID 651749; active = well fitted activation curve with a large enough effect in the signal ratio; the % refers to the signal ratio; also: % of control where 0% means no effect). To be noted: NF-kB-bla ME-180 cells, beta-lactamase FRET ratio, 16 h; stronger effect = higher value. The procedure, abridged:
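Activation measured after 16 hr compound treatment at 37C, 5% CO2, of 2,000 ME-180 cells/well stably expressing an NF-kB response element–driven beta-lactamase reporter, via FRET-disruption fluorescence.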

Test [6] can be described thus: qHTS assay for small molecule activators of the human pregnane X receptor (PXR) signaling pathway (AID 720659; call rule not given here; also: 0% is about no effect). Particulars: DPX-2 HepG2 CYP3A4-luciferase, 24 h; at 92.3 µM (top of the series).
The target of test [7] is Guanine nucleotide-binding protein G(i) subunit alpha-1 (Homo sapiens) (UniProt P63096). The experiment in a line: qHTS Assay for Inhibitors of RGS12 GoLoco Motif Activity (Green Fluorophore) (AID 879).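 Also: 0% = labeled peptide with Gαi1 and full inhibition = labeled peptide alone without protein; negative values mean loss of peptide binding seen as reduced polarization.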 To be noted: Galphai1/FITC-RGS12 GoLoco peptide, fluorescence polarization; at 57.1 µM (top of the series). The procedure, abridged: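 A drop in FITC polarization marked displacement of the FITC-tagged RGS12 GoLoco peptide (10 nM) from Gαi1 (50 nM). Compounds were incubated 10 min at room temperature in Tris pH 7.5 buffer containing 150 mM NaCl, 0.1 mM GDP and 0.05% NP40; unlabeled peptide titration served as control.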

Test [8] is described as follows: qHTS Assay for Identification of Small Molecule Agonists for Thrombopoietin (TPO) Signaling Pathway (AID 917). Also: % is scaled to controls: 0 for no effect and ±100 for the full control effect. To be noted: TPO signaling pathway reporter cells, agonist qHTS, stimulated with TPO at its EC50; at 38.5 µM (top of the series).
Test [9] has as its target Pyruvate kinase PKM (Homo sapiens) (UniProt P14618). The experiment in a line: qHTS Assay for Activators of Human Muscle Pyruvate Kinase (AID 954; active = well fitted curve in the direction sought with a large enough effect, not every such curve was filed as active;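 also: 0% = uninhibited enzyme and -100% = no enzyme or full thiadiazolimine inhibition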). To be noted: purified human PKM1 enzyme activity; at 57.5 µM (top of the series). The procedure, abridged: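 Compound pinned into substrate mix (0.5 mM PEP, 0.1 mM ADP), then 0.1 nM PKM2 added; 1 h, RT. Stop/detection luciferase reagent added, luminescence read. Normalized to no-inhibition and no-enzyme or reference-inhibitor controls.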

In test [10] the target is Alpha-galactosidase A (Homo sapiens) (UniProt P06280). The experiment in a line: Counterscreen for Glucocerebrosidase Inhibitors: qHTS Assay for Human alpha-Galactosidase at pH 4.5 (AID 992). Also: 0% is about no effect. Particulars: purified enzyme, fluorogenic substrate; at 76.9 µM (top of the series). The procedure, abridged: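 Steps: enzyme (2 nM final), then compound across 0.7 nM to 77 uM, then 80 uM fluorogenic galactopyranoside substrate; incubate 20 min at room temperature; quench at pH 10; measure fluorescence at 365/440 nm.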

The target in test [11] is alpha-glucosidase (Oryza sativa, rice) (UniProt Q653V4). Nature of the test: Counterscreen for Glucocerebrosidase Inhibitors: qHTS Assay for Rice alpha-Glucosidase at pH 5.0 (AID 997).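 Also: 0% = full activity with enzyme and -100% = basal without enzyme.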 Particulars: rice alpha-glucosidase enzyme activity; at 76.9 µM (top of the series). The procedure, abridged: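 Endpoint fluorogenic assay at pH 5.0: compounds (0.7 nM to 77 uM) titrated against 4 nM rice enzyme and 400 uM 4-MU-alpha-glucoside for 20 min at room temperature; NaOH/glycine stop, read ex 365/em 440 nm, Hill-fitted AC50.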
A general note: A counterscreen serves to expose hits that act by an unwanted route or on another target.

Test [12] deals with Glucocorticoid receptor (Homo sapiens) (UniProt P04150). Nature of the test: qHTS assay for small molecule agonists of glucocorticoid receptor signaling (AID 588532; active = well fitted curve in the direction sought with a large enough effect in the signal ratio, with a control signal flat; the % refers to the signal ratio;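 also: 100% = dexamethasone at 0.1 µM and 0% = DMSO only wells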). To be noted: HeLa MMTV-bla, beta-lactamase ratio, agonist, 18 h; stronger effect = higher value.
The target of test [13] is Vitamin D3 receptor (Homo sapiens) (UniProt P11473). Nature of the test: qHTS assay for small molecule agonists of vitamin D receptor signaling (AID 588543; calls by dose curve;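 also: 0% = DMSO basal and 100% = reference agonist control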). Particulars: HEK293T VDR-UAS-bla, beta-lactamase ratio, 16 h; at 76.8 µM (top of the series). The procedure, abridged: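 qHTS in agonist mode: compound titrations stimulate a VDR-driven β-lactamase reporter in HEK293T cells over 16 h at 37 °C. Response normalized to 50 nM 1α,25-dihydroxyvitamin D3 = 100%, DMSO = 0%; Hill fitting gives EC50 and maximal response.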

The target in test [14] is Retinoic acid receptor RXR-alpha (Homo sapiens) (UniProt P19793). The experiment in a line: qHTS assay for small molecule antagonists of retinoid X receptor alpha signaling (AID 588546; active = well fitted inhibition curve with a large enough effect in the signal ratio, with a control signal flat, not every such curve was filed as active; the % refers to the signal ratio;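 also: cells stimulated with 9-cis-retinoic acid as agonist; % is scaled to controls: 0 for no effect and ±100 for the full control effect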). Particulars: HEK293T RXRa-UAS-bla, beta-lactamase ratio, antagonist mode. The method, boiled down:
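Beta-lactamase reporter inhibition, read as CCF4 fluorescence ratio (ex 405, em 460/530 nm) after 2 h at RT. HEK293T UAS-bla cells, 2500/well, were stimulated with 9-cis-RA at 500 or 100 nM final alongside test compound for 18 h at 37 C.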

Test [15] in a line: qHTS assay for environmental chemicals that activate the Aryl hydrocarbon Receptor (AhR) signaling pathway (AID 651777). Also: % of control where 0% means no effect; nearly all actives have a fitted effect of over 15% in size. Particulars: 1A2-DRE human hepatoma cells, luciferase, 24 h; stronger effect = higher value. The procedure, abridged: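 Reporter gene assay: hepatoma cells with DRE/CYP1A2-luciferase, 24 hr compound incubation at 37 C, 5% CO2, luminescence after One-Glo (30 min, RT).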

Test [16] addresses Peroxisome proliferator-activated receptor alpha (Homo sapiens) (UniProt Q07869). Nature of the test: qHTS assay for small molecule agonists of the peroxisome proliferator-activated receptor alpha (PPARalpha) signaling pathway (AID 651778). Also: % of control where 0% means no effect. To be noted: PathHunter PPARalpha complementation, chemiluminescence, 6 h; stronger effect = higher value.
Test [17] is described as follows: qHTS assay for small molecule agonists of the antioxidant response element (ARE) signaling pathway measured by Nrf2-dependant transcriptional activity (AID 720636; active = well fitted curve in the direction sought with a large enough effect in the repeat runs; an effect the other way counts as inactive or inconclusive;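 also: HepG2 cells with an ARE-driven luciferase reporter; % of control where 0% means no effect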). Particulars: ARE-luc HepG2, Nrf2 luciferase reporter, 16 h; at 92.4 µM (top of the series).
The nature of test [18]: qHTS assay for small molecule agonists of the antioxidant response element (ARE) signaling pathway measured by Nrf2-dependant transcriptional activity - cell viability counter screen (AID 720653; active = well fitted curve in the direction sought with a large enough effect in the repeat runs; an effect the other way counts as inactive or inconclusive; also: % is scaled to controls: 0 for no effect and ±100 for the full control effect). Particulars: ARE-bla HepG2 viability, CellTiter-Glo ATP luminescence, 16 h; stronger effect = lower value. The procedure, abridged: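 Cytotoxicity counter screen: intracellular ATP quantified by CellTiter-Glo luminescence in the same ARE-bla HepG2 plates, after 16 h compound exposure and a 2 h beta-lactamase substrate step.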

A short description of test [19]: qHTS assay for cell viability of HEK293 cells (AID 743288). Also: % is scaled to controls: 0 for no effect and ±100 for the full control effect; nearly all actives have a fitted effect of over 50% in size. Particulars: ATP luminescence (CellTiter-Glo), 18 h; max response: stronger effect = lower value. The method, boiled down: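 Quantitative high-throughput screen: compounds were pinned onto parental HEK293 cells (2,000 per well) after a minimum 5 h settling at 37 C, incubated 18 h at 37 C, and intracellular ATP measured by luciferase luminescence.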

Where “and” joins values, the source holds several entries; their conditions need not be identical. Equal values may be shown once. The list shows a part of the results, in another mix than the full data. Inconclusive results are not listed. For some assays here: Entries with a potency or affinity are not part of this list. Calls of active or inactive are those of the source. Unless noted, calls follow the shape of the dose curve; as a rule, active = well fitted curve in the direction sought with a large enough effect; inconclusive = small, poorly fitted or top-dose-only effect, or another doubt; inactive = no such curve, though single readings can be large; an effect the other way counts as inactive or inconclusive.

In the case of `CN1CCC[C@H](OC(=O)C(c2ccccc2)c2ccccc2)C1`, the activity change, negative = inhibition in test [1] is active: -81.2%. In addition, in test [2], the activation (PDE inhibition) is inactive: 9.75%.

Take `NC(=O)Nc1cc([As](=O)(O)O)cc(I)c1O`: the activity change, negative = inhibition in test [1] was inactive: 9.12%. Also, the activation (PDE inhibition) in [2] was inactive: 9.41%.

Consider `O=C(CC(=O)c1ccccc1)O[C@H]1CN2CCC1CC2`, for which, in [2], the activation (PDE inhibition) was inactive: 10.9%.

Consider `CCOC(=O)N[C@@H]1CC[C@@H]2[C@@H](C1)C[C@H]1C(=O)O[C@H](C)[C@H]1[C@@H]2C=Cc1ccc(-c2cccc(F)c2)cn1`, for which, in test [3], the viability, percent of control stood at 37.9%.

Consider `CCCCOP(=O)(OCCCC)OCCCC`, for which, in test [4], the activity change, positive = activation is inactive: -47.9%. Also, the activation in test [5] was inactive: -2.55%; in test [6], inactive: 14.6%.

In the case of `CN(C(=O)Cc1ccc(Cl)c(Cl)c1)[C@@H]1CC[C@@]2(CCCO2)C[C@H]1N1CCCC1`, the activation (PDE inhibition) in test [2] is inactive: 0.969%. Also, the activity, negative = inhibition in test [7] was inactive: -1.7%. In addition, the activity, positive = activation in test [8] was inactive: -21.6%. For the same compound, the activity change, negative = inhibition in [9] is inactive: -9.6%; in [10], inactive: -2.65%; in test [11], inactive: -4.55%.

`Nc1nc(Cl)nc2c1ncn2[C@H]1C[C@H](O)[C@@H](CO)O1`: the viability, percent of control in [3] turned out to be 68.9% [at 92.2 µM].

Regarding `O=[As](O)(O)c1ccc([As](=O)(O)O)cc1`, the activity change, negative = inhibition in test [1] is inactive: 11.9%. The activation (PDE inhibition) in test [2] is inactive: -7.38%.

Regarding `CC(C)OP(=S)(OC(C)C)SCCNS(=O)(=O)c1ccccc1`, the activation in test [12] was inactive: 7.34% and inactive: -3.15%; in test [13] it was inactive: 5.75% and inactive: 5.24%; in [15], inactive: 4.97% and inactive: 3.74%; in [17] it was inactive: -0.915% and inactive: -2.25%. The max response in test [14] is inactive: -7.89%; in test [16] it was inactive: 0.499% and inactive: -3.69%; in test [18] it was inactive: -19.9% and inactive: 8.76%; in test [19], inactive: -7.87% and inactive: -2.91%.

The values above are taken from PubChem BioAssay (NCATS).
